{
  "sequences": {"note": "By UniProt entry, the sequences of proteins in these tests, tags left out. Where a name states a change or a piece, a line headed by the entry shows the natural chain unless it says otherwise.", "UniProt O00329": "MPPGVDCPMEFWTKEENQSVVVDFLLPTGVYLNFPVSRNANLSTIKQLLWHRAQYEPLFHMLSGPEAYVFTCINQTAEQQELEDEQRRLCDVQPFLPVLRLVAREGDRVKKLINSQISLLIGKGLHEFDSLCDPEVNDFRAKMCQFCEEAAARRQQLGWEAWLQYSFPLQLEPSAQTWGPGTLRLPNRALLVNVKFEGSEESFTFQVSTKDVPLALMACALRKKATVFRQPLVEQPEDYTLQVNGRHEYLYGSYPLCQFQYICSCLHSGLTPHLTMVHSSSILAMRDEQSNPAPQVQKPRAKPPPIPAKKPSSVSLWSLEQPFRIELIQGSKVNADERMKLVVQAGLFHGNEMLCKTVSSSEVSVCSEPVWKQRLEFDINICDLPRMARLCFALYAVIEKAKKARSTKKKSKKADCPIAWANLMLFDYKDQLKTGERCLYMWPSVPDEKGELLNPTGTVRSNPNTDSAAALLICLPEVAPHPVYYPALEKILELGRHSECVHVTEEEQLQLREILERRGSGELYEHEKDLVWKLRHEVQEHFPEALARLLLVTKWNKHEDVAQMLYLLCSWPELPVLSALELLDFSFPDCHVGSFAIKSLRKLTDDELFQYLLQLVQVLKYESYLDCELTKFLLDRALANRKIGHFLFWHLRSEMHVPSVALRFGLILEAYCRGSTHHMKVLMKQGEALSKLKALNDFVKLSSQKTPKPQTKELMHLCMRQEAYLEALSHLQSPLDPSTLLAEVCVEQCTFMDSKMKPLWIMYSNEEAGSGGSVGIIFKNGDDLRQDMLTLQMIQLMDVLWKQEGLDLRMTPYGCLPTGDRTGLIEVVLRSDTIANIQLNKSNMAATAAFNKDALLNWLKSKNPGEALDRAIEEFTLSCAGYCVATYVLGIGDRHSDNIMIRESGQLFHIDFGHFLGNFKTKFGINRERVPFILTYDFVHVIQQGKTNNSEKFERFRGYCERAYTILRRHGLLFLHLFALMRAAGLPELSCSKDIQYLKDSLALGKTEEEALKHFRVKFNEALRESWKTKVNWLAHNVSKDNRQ"},
  "source": "patent US20190161480A1",
  "about": "“Chemical Compounds” (GLAXOSMITHKLINE INTELLECTUAL PROPERTY DEVELOPMENT LIMITED, priority 2016, published 2019)",
  "biological_target": "PI3Kδ (Homo sapiens, UniProt O00329)",
  "assay": "PI3Kδ jump dilution experiment",
  "assay_type": "biochemical",
  "settings": "15 min incubation, 100-fold dilution, read for 30 minutes",
  "description": "Irreversibility of the PI3Kδ-Inhibitor complex, and reversibility of the non-covalent controls, was determined by jump-dilution assay as follows:\nPI3Kδ enzyme was made up to a 100× assay concentration (final assay concentration=6 nM) in buffer solution (contains 50 mM HEPES pH 7.0 (NaOH), 150 mM NaCl, 10 mM MgCl2, 2.3 mM sodium cholate, 10 μM CHAPS made up in milliQ water).\n100× enzyme solution was added to compound wells (20 μL/well), and incubated for 15 mins, after which point the assay was diluted 100-fold with commercially available ADP QUEST substrate solution, available from DiscoverX (calatog number: 90-0071), (3200 μL DiscoverX Reagent A, 6400 μL DiscoverX Reagent B, 1 mM ATP and 40 μM PIP2). Production of fluorescence signal was then measured immediately using a Tecan Safire II plate reader at 30 second intervals for 30 minutes (λex=544 nm, λem=590 nm).",
  "data": [
    {"smiles": "COC[C@H]1OC(=O)c2coc3c2[C@@]1(C)C1=C(C3=O)[C@@H]2CCC(=O)[C@@]2(C)C[C@H]1OC(C)=O", "note": "[Wortmannin, reference compound]", "values": [
      {"measurement": "Recovery of enzyme activity after jump dilution", "value": "no recovery of activity"}
    ]}
  ]
}
